Our source for the activity change, negative = inhibition values is PubChem BioAssay AID504333 (National Center for Advancing Translational Sciences (NCATS), 2011).

Amino acid sequences for entries named in this document (tags omitted). A change or cut given only in a name is not applied to a line headed by its entry.
UniProt Q9UIF8: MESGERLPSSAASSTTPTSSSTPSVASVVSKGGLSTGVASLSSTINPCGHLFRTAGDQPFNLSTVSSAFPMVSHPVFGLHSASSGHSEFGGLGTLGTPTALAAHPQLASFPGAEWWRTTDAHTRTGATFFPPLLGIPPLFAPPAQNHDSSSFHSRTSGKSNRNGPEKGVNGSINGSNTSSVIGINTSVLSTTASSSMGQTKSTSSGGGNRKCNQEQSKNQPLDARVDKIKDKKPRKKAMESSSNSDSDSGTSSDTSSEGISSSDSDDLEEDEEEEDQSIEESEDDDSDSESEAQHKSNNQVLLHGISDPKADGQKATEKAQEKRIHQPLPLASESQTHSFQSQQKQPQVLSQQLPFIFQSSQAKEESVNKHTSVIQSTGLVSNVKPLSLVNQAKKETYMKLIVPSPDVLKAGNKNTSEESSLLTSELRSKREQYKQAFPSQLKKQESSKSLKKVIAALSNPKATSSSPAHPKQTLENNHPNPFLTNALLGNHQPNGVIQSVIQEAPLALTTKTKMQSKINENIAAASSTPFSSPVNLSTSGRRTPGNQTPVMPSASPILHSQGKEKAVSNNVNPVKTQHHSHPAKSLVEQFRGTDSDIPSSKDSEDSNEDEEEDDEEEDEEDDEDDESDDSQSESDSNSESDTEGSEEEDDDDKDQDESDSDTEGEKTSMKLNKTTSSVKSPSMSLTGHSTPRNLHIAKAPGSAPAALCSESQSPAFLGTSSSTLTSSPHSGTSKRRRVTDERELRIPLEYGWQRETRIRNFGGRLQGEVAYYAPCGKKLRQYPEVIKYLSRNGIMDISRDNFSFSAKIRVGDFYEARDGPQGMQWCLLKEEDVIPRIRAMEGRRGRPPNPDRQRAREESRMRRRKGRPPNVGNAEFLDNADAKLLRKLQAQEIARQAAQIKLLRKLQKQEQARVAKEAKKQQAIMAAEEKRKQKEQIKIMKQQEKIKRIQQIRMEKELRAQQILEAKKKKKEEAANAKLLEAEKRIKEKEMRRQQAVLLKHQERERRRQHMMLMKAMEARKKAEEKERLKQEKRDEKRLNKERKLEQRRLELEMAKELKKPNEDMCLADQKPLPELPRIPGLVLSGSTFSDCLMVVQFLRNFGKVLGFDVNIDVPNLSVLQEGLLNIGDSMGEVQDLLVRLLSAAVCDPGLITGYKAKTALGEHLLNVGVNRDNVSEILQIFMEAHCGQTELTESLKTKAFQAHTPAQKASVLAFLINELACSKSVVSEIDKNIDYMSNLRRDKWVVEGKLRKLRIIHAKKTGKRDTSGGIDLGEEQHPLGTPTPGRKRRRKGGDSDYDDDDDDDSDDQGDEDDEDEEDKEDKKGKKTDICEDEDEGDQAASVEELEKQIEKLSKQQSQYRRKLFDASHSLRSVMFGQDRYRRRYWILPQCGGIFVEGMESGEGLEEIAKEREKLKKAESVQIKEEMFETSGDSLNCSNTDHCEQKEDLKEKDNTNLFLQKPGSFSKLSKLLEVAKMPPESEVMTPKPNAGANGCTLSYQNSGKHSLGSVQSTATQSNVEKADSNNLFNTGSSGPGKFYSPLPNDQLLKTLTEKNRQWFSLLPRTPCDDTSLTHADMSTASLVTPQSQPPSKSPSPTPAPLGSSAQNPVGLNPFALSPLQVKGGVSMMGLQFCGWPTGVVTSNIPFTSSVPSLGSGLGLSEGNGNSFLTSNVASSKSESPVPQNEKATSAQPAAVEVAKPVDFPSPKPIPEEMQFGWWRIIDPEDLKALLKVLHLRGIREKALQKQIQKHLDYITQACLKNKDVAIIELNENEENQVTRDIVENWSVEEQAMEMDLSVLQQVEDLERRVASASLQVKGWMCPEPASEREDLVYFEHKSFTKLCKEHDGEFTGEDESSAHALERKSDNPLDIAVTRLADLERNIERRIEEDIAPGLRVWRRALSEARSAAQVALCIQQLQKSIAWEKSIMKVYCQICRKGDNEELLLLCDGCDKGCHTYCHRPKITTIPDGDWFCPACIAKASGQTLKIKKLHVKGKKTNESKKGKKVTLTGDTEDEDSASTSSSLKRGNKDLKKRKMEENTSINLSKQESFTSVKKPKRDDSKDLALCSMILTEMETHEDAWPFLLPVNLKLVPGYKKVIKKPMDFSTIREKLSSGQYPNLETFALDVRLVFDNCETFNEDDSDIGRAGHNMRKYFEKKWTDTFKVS

Most of the hits are listed elsewhere, so they are rarer here than in the full data. Records with an inconclusive call do not appear. Active and inactive are the calls of the source. Calls follow the shape of the dose curve; as a rule, active = well fitted inhibition curve with a large enough effect; inconclusive = small, poorly fitted or top-dose-only effect; inactive = no such curve, though single readings can be large or run the other way.
% is scaled to controls: 0 for no effect and ±100 for the full control effect.

For the assay, the target named is Bromodomain adjacent to zinc finger domain protein 2B (Homo sapiens) (UniProt Q9UIF8). As to the kind of experiment: qHTS Assay for Inhibitors of BAZ2B. Also: nearly all actives have a fitted effect of over 60% in size. Particulars: AlphaScreen BAZ2B-H3K14Ac peptide displacement; at 114 µM (top of the series). From the text:
BAZ2B (bromodomain adjacent to zinc finger domain, 2B) belongs to a family of ubiquitously expressed bromodomain containing proteins, which biological function has not yet been elucidated. […] The interaction of BAZ2B with ISWI mediated by the BAZ1 motif has recently been described. […] The protocol is based on the AlphaScreen (PerkinElmer) displacement assay developed by NCGC [5], but uses the peptide ligand Biot-H3K14Ac, a high affinity binding partner for BAZ2B, in an AlphaScreen format. Although AlphaScreen has significant advantages with its utility in a variety of epigenetic target assays, the primary screening data provided in this deposition should be used with caution due to the prevalence of screening artifacts. The top compound concentration tested was 110uM in this assay, which increases number of actives and potential artifacts. […] Yasgar, et al. Compound Management for Quantitative High-Throughput Screening. […] Inglese, et al. Quantitative high-throughput screening: a titration-based approach that efficiently identifies biological activities in large chemical libraries. […]
To each well of a 1,536w plate, 2ul of BAZ2B protein (final 50nM) and 1ul biotinylated histone peptide acetylated at Lys14 [b-H3(5-23)K14Ac] […] Plates were read on an EnVision multilabel plate reader using the 1,536 plate HTS AlphaScreen aperture (excitation time 80 ms, measurement time 240 ms).
Turning to `CC(C)(C(=O)O)c1ccc(C(O)CCCN2CCC(C(O)(c3ccccc3)c3ccccc3)CC2)cc1` (stereo unspecified), the activity change, negative = inhibition is inactive: 4.55%.
